# Measured values reported in ChEMBL document CHEMBL4390654, “Microwave-assisted solid-phase synthesis of antisense acpP peptide nucleic acid-peptide conjugates active against colistin- and tigecycline-resistant E. coli and K. pneumoniae” (Eur J Med Chem, 2019).
# Test system: Escherichia coli
# Assay: Antibacterial activity against multi-drug resistant Escherichia coli NMI 3898/15 assessed as reduction in microbial growth incubated for 20 hrs
# Format: functional
# Summary of the method: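 Broth microdilution MIC (modified Hancock protocol) in non-binding polystyrene plates. Inoculum ~2 × 10^5 CFU/mL in Mueller-Hinton broth with Mg²⁺ and Ca²⁺ at 4 mg/L each. Compounds dissolved in water, diluted in 0.01% acetic acid/0.2% BSA (final), added as 10× stocks. Covered plates incubated 20 h at 35 °C (± 2 °C) with 220 rpm circular shaking before MIC read.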
sequence,measurement,value
GENTAMICIN,MIC,0.5 µg/mL
